Laboratory results from article PMC2941613 (2010).

Chains of the proteins cited; added tags and fusions are not shown. Residues count along the entry.
UniProt P28843, 37-760 limits assumed: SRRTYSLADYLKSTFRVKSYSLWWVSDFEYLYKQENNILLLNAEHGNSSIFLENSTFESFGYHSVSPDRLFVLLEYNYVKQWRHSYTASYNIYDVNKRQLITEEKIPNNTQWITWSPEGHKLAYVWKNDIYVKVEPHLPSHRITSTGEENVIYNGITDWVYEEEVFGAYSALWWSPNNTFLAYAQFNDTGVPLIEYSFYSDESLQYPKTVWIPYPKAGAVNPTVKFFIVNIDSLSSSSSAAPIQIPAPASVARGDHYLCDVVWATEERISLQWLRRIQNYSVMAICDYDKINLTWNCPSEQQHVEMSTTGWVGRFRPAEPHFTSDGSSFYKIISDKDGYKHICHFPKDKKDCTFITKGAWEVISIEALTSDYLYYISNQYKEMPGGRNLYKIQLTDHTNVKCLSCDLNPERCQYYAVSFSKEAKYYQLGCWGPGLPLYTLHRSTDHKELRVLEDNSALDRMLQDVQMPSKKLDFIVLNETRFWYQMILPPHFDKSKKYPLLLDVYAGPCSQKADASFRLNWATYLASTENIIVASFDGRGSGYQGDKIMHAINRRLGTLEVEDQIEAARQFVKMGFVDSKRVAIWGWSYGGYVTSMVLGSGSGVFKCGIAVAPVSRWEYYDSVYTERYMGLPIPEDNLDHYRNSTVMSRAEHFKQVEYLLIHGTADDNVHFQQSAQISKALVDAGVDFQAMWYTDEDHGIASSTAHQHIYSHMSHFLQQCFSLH

Legend:
DPP-IV activity [1] = molecular target: T1, DPP-IV activity (Mus musculus, UniProt P28843); experiment: in vivo; conditions: po
DPP-IV activity [2] = molecular target: T1, DPP-IV activity; conditions: 10 mg/kg p.o., ob/ob mice
[3] = read-out: DPP-IV inhibition at 60 min
[4] = read-out: DPP-IV inhibition at 8 h

| inhibition at 10 mg/kg (DPP-IV activity [1]; [3]) | inhibition at 10 mg/kg (DPP-IV activity [1]; read-out: DPP-IV inhibition at 2 h) | DPP-IV activity at 4 h (DPP-IV activity [2]) | inhibition at 10 mg/kg (DPP-IV activity [1]; [4]) | Compound |
| --- | --- | --- | --- | --- |
| ≤ 80% | 50% | steady recovery of enzyme activity | – | N#Cc1ccc(NCCNCC(=O)N2CCC[C@H]2C#N)nc1 |
| 90% | – | – | > 70% | N[C@@H](CC(=O)N1CCn2c(nnc2C(F)(F)F)C1)Cc1cc(F)c(F)cc1F [sitagliptin] |
| – | – | – | > 70% | N#C[C@@H]1CCCN1C(=O)CNC12CC3CC(CC(O)(C3)C1)C2 [vildagliptin] |

Like-named read-outs stand apart in the source and are kept apart here.
